Experimental data: PMC6433648 (British Journal of Pharmacology, 2019)

Protein sequences, listed by entry. Tags and fused reporters are not part of them. Residues count along the entry.
UniProt P30542, 2-326 limits assumed: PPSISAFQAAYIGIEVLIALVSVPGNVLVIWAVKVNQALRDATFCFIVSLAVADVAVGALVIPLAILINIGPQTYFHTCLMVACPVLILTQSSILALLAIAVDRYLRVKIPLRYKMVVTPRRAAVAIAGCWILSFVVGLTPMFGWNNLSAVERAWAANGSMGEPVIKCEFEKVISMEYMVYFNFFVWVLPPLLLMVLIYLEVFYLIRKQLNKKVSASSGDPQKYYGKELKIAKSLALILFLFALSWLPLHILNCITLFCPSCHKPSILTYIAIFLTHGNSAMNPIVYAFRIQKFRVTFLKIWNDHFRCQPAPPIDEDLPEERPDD

Biological target: human Nluc‐A1AR (Homo sapiens, UniProt P30542)
Experiment: NanoBRET competition binding: inhibition of specific binding of CA200645
Set-up: expressed in transfected cells
Source text: The IC50 values from competition‐binding curves were used to calculate the K i of the unlabelled ligands using the Cheng–Prusoff equation: Ki=IC50/1+L/KD, where [L] is the concentration of fluorescent ligand in nM, and K D is the dissociation constant of the fluorescent ligand in nM. The K D values used were obtained from the saturation‐binding experiments.

In the case of `O=C(Cc1ccccc1)Nc1nc2ccc(Cl)cc2c2nc(-c3ccco3)nn12` [MRS1220, N‐[9‐chloro‐2‐(furan‐2‐yl)‐[1,2,4]triazolo[1,5‐c]quinazolin‐5‐yl]‐2‐phenylacetamide], the IC50 (Nluc‐human A1AR, 25 nM CA200645, HEK293T cells) is reported as 0.38 µM and the Ki (read-out: pK i ± SEM (converted)) is reported as 0.219 µM.
